Earlier results, collected in patent US9822414B2, “In vitro method for predicting in vivo genotoxicity of chemical compounds” (priority 2011, dated 2017).

Test system: Salmonella typhimurium
Settings: cited from earlier work

SMILES: O=C(O)Cc1ccccc1Nc1c(Cl)cccc1Cl [Diclo]
- Ames: −
